In article PMC8286823, “Identifying SARS-CoV-2 antiviral compounds by screening for small molecule inhibitors of nsp15 endoribonuclease” (Biochemical Journal, 2021):

Biological target: SARS-CoV-2 nsp15 endoribonuclease (Severe acute respiratory syndrome coronavirus 2, UniProt P0DTD1)

Question: With `CC(=O)[C@]1(O)Cc2c(O)c3c(c(O)c2[C@@H](O[C@H]2C[C@H](N)[C@H](O)[C@H](C)O2)C1)C(=O)c1ccccc1C3=O` [Idarubicin] as the compound, how does the “Z-score [High]” value read?
Answer: -0.30

Question: And the “Z-score [Low]” value?
Answer: -0.61
